Experimental data from PMC5618191, “The Natural Fungal Metabolite Beauvericin Exerts Anticancer Activity In Vivo: A Pre-Clinical Pilot Study” (Toxins, 2017).

Experiments:
[1] = Serum AST, ALT, bilirubin and creatinine (Reflotron Plus); format: in vivo, CB-17/SCID mice
[2] = Beauvericin distribution by LC-MS/MS, allograft model; format: in vivo, BALB/c mice
[3] = Beauvericin distribution by LC-MS/MS, xenograft model; format: in vivo, CB-17/SCID mice
[4] = test system: KB-3-1-derived tumor xenografts; test: KB-3-1 xenograft mouse model; format: in vivo, CB-17/SCID mice; details: 5 mg/kg bw/day
Experimental: (§1) For the allograft experiment, 4 × 10^5 CT-26 cells were resuspended in 50 µL RPMI medium and injected subcutaneously into the right flank of eight, 6–8 weeks old, male BALB/c mice that were obtained from Harlan Laboratories (San Pietro al Natisone, Italy). Likewise, in the xenograft experiment, 1 × 10^6 KB-3-1 cells in 50 µL RPMI medium were injected subcutaneously into the right flank of eight, 6–8 weeks old, male CB-17/IcrHanHsd-Prkdc severe combined immunodeficiency (SCID) mice. Of each group, four animals were randomly assigned to the control or to the treatment group. […] Effects of the treatment were assessed by daily recording of tumor size with a microcaliper and parameters indicating the animals’ overall health condition (e.g., body weight, fatigue, grooming, ragged coat, food and fluid consumption). Tumor volumes (mm^3) were calculated using the formula: (length × width^2)/2. […]
(§2) From each mouse from both the control (n = 4) and the treatment group (n = 4), tissue samples were formalin-fixed, paraffin-embedded and used to prepare serial 3 µm sections. […] Numbers of the three cell fractions were analyzed in a blinded setup in at least four images of H/E-stained tumor sections, taken under a 40 × objective microscope lens. […]

[5] = set-up: method as in PMID 26892719; details: after three days of treatment; cited from earlier work
[6] = test system: CT-26-derived tumor allografts; test: CT-26 allograft mouse model; format: in vivo, BALB/c mice; details: 5 mg/kg bw/day i.p.
Experimental: as §1, §2

[7] = 5 mg/kg bw/day, two cycles, one day after therapy
[8] = end of the treatment period (one day after therapy), detection limit
[9] = two weeks after the last treatment
[10] = 5 mg/kg bw/day i.p., 9 days of treatment

Substance: beauvericin
- Serum level of ALT [1, 7]: 23.3 ± 0.6 U/L
- Serum level of AST [1, 7]: 115.3 ± 66.0 U/L
- Serum creatinine [1, 8]: < 0.5 mg/dL
- Total bilirubin in serum [1, 8]: < 0.5 mg/dL
- Bilirubin in serum [1, 9]: 0.6 ± 0.4 mg/dL
- Serum level of ALT [1, 9]: 23.1 ± 4.9 U/L
- Serum level of AST [1, 9]: 117.3 ± 23.3 U/L
- Serum creatinine ([1]; two weeks after the last treatment, detection limit): < 0.5 mg/dL
- Beauvericin level in adipose tissue [2, 10]: 3701.3 ± 1091.5 µg/kg
- Beauvericin level in colon [2, 10]: 178.5 ± 170.1 µg/kg
- Beauvericin level in serum [2, 10]: 35.7 ± 13.5 µg/kg
- Beauvericin level in CT-26 tumors ([2]; 5 mg/kg bw/day i.p., 9 days of treatment, 24 h after last injection): 81.0 ± 46.6 µg/kg
- Accumulation in adipose tissue compared to serum ([2]; allograft model): 103.6 fold
- Accumulation in colon compared to serum ([2]; allograft model): 4.9 fold
- Accumulation in feces compared to serum ([2]; allograft model): 19.5 fold
- Urine level compared to serum ([2]; allograft model): 0.08 fold
- Beauvericin level in KB-3-1 tumor [3, 10]: 99.9 ± 35.7 µg/kg
- Beauvericin level in adipose tissue [3, 10]: 2600.5 ± 513.9 µg/kg
- Beauvericin level in feces [3, 10]: 912.9 ± 256.8 µg/kg
- Beauvericin level in kidney [3, 10]: 305.7 ± 151.0 µg/kg
- Levels of beauvericin in urine [3, 10]: below the detection limit
- Accumulation in KB-3-1 tumor compared to serum ([3]; xenograft model): 1.8 fold
- Enrichment in colon compared to serum ([3]; xenograft model): 3.9 fold
- Adverse treatment effects (body weight, behavior) [4]: did not show any indications for possible adverse treatment effects
- Metabolites in mice [5]: no metabolites of beauvericin could be detected
- Systemic toxicity (behavior monitoring) [6]: no indication for beauvericin-attributed systemic toxicity
